Values quoted from earlier work in patent US20260263624A1, “COMBINATION OF ANTIBODY-DRUG CONJUGATE AND CANCER THERAPY, AND USE THEREOF” (GENEQUANTUM HEALTHCARE (SUZHOU) CO., LTD., priority 2023, published 2026).

Tested on: patients with mBC or LABC
Settings: single-agent T-DM1; cited from earlier work

T-DM1
patients with thrombocytopenia: 30-55%
